Laboratory results taken from patent US8067582B2 (Bristol-Myers Squibb Company, priority 2007, dated 2011).

Molecular target: androgen receptor (AR) (Homo sapiens, UniProt P10275)
Assay: MDA-MB-453 Androgen Receptor Transactivation Assay (PSA-Luc reporter, 3 nM DHT)
Format: cell-based
Settings: MDA-MB-453 cells, antagonism in presence of 3 nM DHT, 48 hour incubation
Text: Compounds can be tested in a cell based transactivation assay used to measure the antagonism of androgen receptor (AR) transcriptional activity. The transactivation assay provides a means of identifying antagonists that inhibit the effects of the native hormone dihydrotestosterone (DHT). […] The pGL3 PSA-Luc reporter plasmid is comprised of the cDNA for the firefly luciferase gene and the upstream promoter sequences containing the androgen response elements (AREs) of the prostate specific antigen (PSA). This plasmid functions as a reporter for the transcription-modulating activity of the AR. In order to detect antagonists, the transactivation assay is conducted in the presence of constant concentration of the natural AR hormone (DHT) to induce a defined reporter signal. […]
MDA-MB-453 and 22 RV1 cells were maintained in DMEM (Cellgro, Cat. #10-014-CM) or RPMI 1640 (Gibco Cat. #11875-085) respectively and supplemented with 10% FBS (Invitrogen/GIBCO Life Science). […] Following transfection, cells are washed, treated with trypsin, counted, and seeded in a 96-well plate at 30,000 cells per well in DMEM containing 10% Charcoal/Dextran Treated Fetal Bovine Serum (Gibco Cat. #11054-020) for MDA-MB-453 cells or RPMI 1640 (Gibco Cat. #110835) containing 10% FBS (Invitrogen/GIBCO Life Science) for 22 RV1 cells. […]

Substance: 4-((1S,4S,7S,8R,10S,11R)-10-Hydroxy-8-methyl-6-oxo-3,12-dioxa-5-azatetracyclo[5.3.1.1^1,8.0^4,11]dodec-5-yl)-2-(trifluoromethyl)benzonitrile [Example 39]
- pIC50: 6.14

pIC50: −log10 of the molar value.
